Test system: 12 mm right basal ganglia infarct (acute lacunar infarct)
Parameters: species or system human
Conditions: in vivo

CC12CC3CC(C)(C1)CC(N)(C3)C2 [memantine, 3,5-dimethyladamantan-1-amine]
clinical course on memantine alone: presents with a right sided leg weakness
